The values that follow come from EP2914280B1, “SOMATOSTATIN-DOPAMINE CHIMERIC ANALOGS” (IPSEN PHARMA S.A.S., priority 2012, dated 2014).

The chains behind the UniProt entries cited, without tags or fusion partners. Where a name states a change or a piece, a line headed by the entry shows the natural chain unless it says otherwise.
UniProt P30874: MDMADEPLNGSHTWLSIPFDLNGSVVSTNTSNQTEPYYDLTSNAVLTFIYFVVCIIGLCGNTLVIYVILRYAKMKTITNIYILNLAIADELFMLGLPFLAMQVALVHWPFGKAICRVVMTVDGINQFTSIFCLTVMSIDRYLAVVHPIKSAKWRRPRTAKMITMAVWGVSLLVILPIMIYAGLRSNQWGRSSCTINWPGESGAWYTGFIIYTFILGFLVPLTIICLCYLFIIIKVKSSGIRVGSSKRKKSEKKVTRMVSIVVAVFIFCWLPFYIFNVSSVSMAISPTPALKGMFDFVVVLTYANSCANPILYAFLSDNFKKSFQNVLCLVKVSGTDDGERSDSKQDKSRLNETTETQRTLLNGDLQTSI

For the assay, the target named is T1, hSSTR2 (Homo sapiens, UniProt P30874).
T1 construct: host or cells: 'Cells expressing hSSTR2'
The assay is described as follows: Intracellular calcium mobilization assay (FLIPR Calcium 4), hSSTR2.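 Note: agonist activity measured in cells expressing hSSTR2, seeded in 384-well plates, loaded with Calcium 4 dye, read-out as rise in intracellular calcium.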 The assay is classed as cell-based. To be noted: p value (Student's t-test, one-tailed) < 0.05; receptor not named.

For the substance “Dop1-psi(CH2NH)-cyclo(DLys-Arg-Phe-Phe-DTrp-Lys-Thr-4FPhe) [Compound 6]”, the “improvement in EC50 over Reference Compound A” value was “statistically significant improvement in EC50”.
On to “Dop1-psi(CH2NH)-cyclo(DLys-Arg-Phe-4Pal-DTrp-Lys-Thr-Tyr) [Compound 7]”, for which the “improvement in EC50 over Reference Compound A” value is listed as “statistically significant improvement in EC50”.
